Among the data in PubChem BioAssay AID2517 (National Center for Advancing Translational Sciences (NCATS), 2010) are activity change, negative = inhibition values, retold here.

Amino acid sequences for entries named in this document (tags omitted).
UniProt P27695, whole entry: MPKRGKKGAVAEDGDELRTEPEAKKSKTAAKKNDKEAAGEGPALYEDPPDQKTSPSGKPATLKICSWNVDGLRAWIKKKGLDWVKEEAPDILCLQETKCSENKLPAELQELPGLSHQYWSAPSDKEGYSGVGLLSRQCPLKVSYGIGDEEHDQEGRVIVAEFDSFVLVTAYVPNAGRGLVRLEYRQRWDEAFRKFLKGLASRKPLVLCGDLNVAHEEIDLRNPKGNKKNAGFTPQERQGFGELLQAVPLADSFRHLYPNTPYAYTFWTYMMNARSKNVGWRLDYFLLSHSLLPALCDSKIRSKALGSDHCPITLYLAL

The list shows a part of the results, in another mix than the full data. Inconclusive results are not listed. Some salts or complexes appear as unconnected parts, following the source record. Activity calls are given as the source filed them. Calls follow the shape of the dose curve; as a rule, active = well fitted inhibition curve with a large enough effect; inconclusive = small, poorly fitted or top-dose-only effect; inactive = no such curve, though single readings can be large or run the other way.

In the assay the target is DNA repair nuclease/redox regulator APEX1 (Homo sapiens) (UniProt P27695). Briefly: qHTS Assay for Inhibitors of the Human Apurinic/apyrimidinic Endonuclease 1 (APE1).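 Also: plate controls were vehicle for no effect and reference inhibitor for full effect; nearly all actives have a fitted effect of over 55% in size.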 The note with it: recombinant APE1, TAMRA/BHQ-2 abasic DNA cleavage fluorescence; at 65.8 µM (top of the series) unless noted.
On to `COc1cc(C(=O)NCC2(N(C)C)CCCCC2)ccc1OC(F)F`, for which the activity change, negative = inhibition is inactive: 27.9%.

With `CCOC(=O)N1CCC(Nc2cccc(C)c2)CC1`, the activity change, negative = inhibition was inactive: 16.5%.

With `Cc1ccc(OCC(C)C)c(CN(CCCl)CCCl)c1`, the activity change, negative = inhibition was inactive: 9.96%.

`CCOc1ccc(C)cc1CN(CCCl)CCCl`: the activity change, negative = inhibition is inactive: 21%.

With `O=C(NCC1(N2CCCCC2)CCCCC1)c1ccc(F)cc1`, the activity change, negative = inhibition was inactive: 8.1% [at 12.4 µM].

Take `CCCCOc1ccc(C(=O)NCC2(N3CCOCC3)CCCCC2)cc1`: the activity change, negative = inhibition was inactive: -2.52%.

Turning to `COc1ccc(NC2CCN(CCc3ccccc3)CC2)c(OC)c1`, the activity change, negative = inhibition was inactive: 8.59%.

For `CCOC(=O)N1CCC(Nc2ccc(F)cc2)CC1`, the activity change, negative = inhibition is inactive: 7.12%.

Take `O=C(NCC1(N2CCOCC2)CCCCC1)c1cc2ccccc2o1`: the activity change, negative = inhibition is inactive: -2.14%.

In the case of `O=C(NCC1(N2CCCCC2)CCCCC1)c1ccc(Cl)nc1`, the activity change, negative = inhibition is inactive: 32.1%.

In the case of `Cc1cc(C)cc(N(C(=O)c2ccccc2)C2CCN(C(=O)OC(C)(C)C)CC2)c1`, the activity change, negative = inhibition is inactive: 11.8%.

For the compound `CCOC(=O)N1CCC(Nc2ccc(OC)cc2)CC1`, the activity change, negative = inhibition was inactive: 1.28%.

As for `O=C(OC1CN2CCC1CC2)C1c2ccccc2Oc2ccccc21` (stereo unspecified), the activity change, negative = inhibition was inactive: -4.5%.

With `N#CC1(Nc2ccccc2)CCN(Cc2ccccc2)CC1`, the activity change, negative = inhibition was inactive: -3.58%.

With `O=C(NCC1(N2CCCCC2)CCCCC1)c1ccc(Cl)s1`, the activity change, negative = inhibition was inactive: 1.8%.

For `COc1ccc(Cl)cc1C(=O)NCC1(N2CCOCC2)CCCCC1`, the activity change, negative = inhibition is inactive: -23.4%.

Take `O=C(NCC1(N2CCCCC2)CCCCC1)c1ccc(=O)[nH]c1`: the activity change, negative = inhibition was inactive: 28.4%.

Turning to `O=C(NCC1(N2CCCCC2)CCCCC1)c1cccs1`, the activity change, negative = inhibition is inactive: 16.6%.

Consider `COc1ccc(C(=O)NCC2(N3CCCCC3)CCCCC2)cc1`, for which the activity change, negative = inhibition was inactive: 39.9%.

On to `COc1ccc(C(=O)NCC2(N3CCCCC3)CCCCC2)c(OC)c1OC`, for which the activity change, negative = inhibition is inactive: 8.59%.

Regarding `CC(C)(C)OC(=O)N1CCC(N(C(=O)c2ccccc2)c2ccc(F)cc2)CC1`, the activity change, negative = inhibition is inactive: -6.87%.

`CSc1ccccc1C(=O)NCC1(N2CCCCC2)CCCCC1`: the activity change, negative = inhibition was inactive: 28% [at 12.4 µM].

Take `O=C(NCC1(N2CCCCC2)CCCCC1)c1cncc(Br)c1`: the activity change, negative = inhibition was inactive: 16.3%.

Consider `COc1ccc2c(c1O)-c1c(O)c(OC)cc3c1[C@H](C2)[N+](C)(C)CC3.O=[N+]([O-])c1cc([N+](=O)[O-])c([O-])c([N+](=O)[O-])c1[O-]`, for which the activity change, negative = inhibition was inactive: -4.24%.

Turning to `O=C(OC1CN2CCC1CC2)c1ccc([N+](=O)[O-])cc1` (stereo unspecified), the activity change, negative = inhibition was inactive: 8.43%.

With `CCCOc1ccc(C(=O)NCC2(N(C)C)CCCCC2)cc1OC`, the activity change, negative = inhibition is inactive: 32.2%.

With `COc1ccc(CN(CCCl)CCCl)cc1Cl`, the activity change, negative = inhibition was inactive: 6.78%.

`O=[N+]([O-])c1cc([N+](=O)[O-])c(OC2CCCCC2O)c([N+](=O)[O-])c1` (stereo unspecified): the activity change, negative = inhibition is inactive: 15.3%.

As for `CN(C)c1cccc(C(=O)NCC2(N3CCCCC3)CCCCC2)c1`, the activity change, negative = inhibition is inactive: -5.54%.

As to `CC(C)c1ccc(NC2CCN(C(=O)OC(C)(C)C)CC2)cc1`, the activity change, negative = inhibition is inactive: -1.83%.

`COc1cc(OC)c(C(=O)NCC2(N(C)C)CCCCC2)cc1OC`: the activity change, negative = inhibition is inactive: 0.768%.

With `O=C(NCC1(N2CCOCC2)CCCCC1)c1cc(F)c(F)cc1Cl`, the activity change, negative = inhibition was inactive: -9.22%.

`CCOP(=O)(Cl)Cl`: the activity change, negative = inhibition is inactive: -0.0404%.

Turning to `O=C(NCC1(N2CCCCC2)CCCCC1)c1cccc(C(F)(F)F)c1`, the activity change, negative = inhibition was inactive: 25%.

As for `O=[N+]([O-])c1cc([N+](=O)[O-])c(NCC2CCS(=O)(=O)C2)c([N+](=O)[O-])c1` (stereo unspecified), the activity change, negative = inhibition was inactive: -3.75%.

Consider `CN1CCN(CCOC(=O)C(O)(c2ccccc2)c2ccccc2)CC1`, for which the activity change, negative = inhibition was inactive: 4.05%.

`COc1ccc(NC2CCN(C(=O)OC(C)(C)C)CC2)cc1`: the activity change, negative = inhibition is inactive: -5.95%.

`CC(C)c1ccc(C(=O)NCC2(N3CCOCC3)CCCCC2)cc1`: the activity change, negative = inhibition was inactive: 1.13%.

In the case of `COc1cc(C(=O)NCC2(N3CCCCC3)CCCCC2)ccc1OC(F)F`, the activity change, negative = inhibition was inactive: 21.5%.

In the case of `O=C(NCC1(N2CCOCC2)CCCCC1)c1cc(=O)[nH]c2ccccc12`, the activity change, negative = inhibition is inactive: 10.7%.

`O=C(NCC1(N2CCCCC2)CCCCC1)c1ccc(OC(F)F)cc1`: the activity change, negative = inhibition is inactive: -10.4%.

With `CSc1ccc(C(=O)NCC2(N3CCOCC3)CCCCC2)cc1`, the activity change, negative = inhibition is inactive: 3.96%.

As to `O=C(NCC1(N2CCCCC2)CCCCC1)c1cccc([N+](=O)[O-])c1`, the activity change, negative = inhibition is inactive: -0.287%.

For the compound `CCN1CCC(Nc2ccc(Cl)cc2)CC1`, the activity change, negative = inhibition is inactive: 12.7%.

Take `N#CC1(Nc2ccccc2)CCN(CCc2ccccc2)CC1`: the activity change, negative = inhibition is inactive: -2.05%.

On to `c1ccc(CN2CCC(Nc3ccccc3)CC2)cc1`, for which the activity change, negative = inhibition was inactive: 1.39%.

Consider `CCCN1CCC(Nc2cc(OC)cc(OC)c2)CC1`, for which the activity change, negative = inhibition is inactive: 7.28%.

Turning to `ClCCOP(OCCCl)OCCCl`, the activity change, negative = inhibition was inactive: 3.66%.

Consider `CN(C)C1(CNC(=O)c2cccc(C#N)c2)CCCCC1`, for which the activity change, negative = inhibition is inactive: 6.56%.

For `CC(C)(C)OC(=O)N1CCC(N(C(=O)c2ccccc2)c2ccc(Cl)cc2)CC1`, the activity change, negative = inhibition was inactive: 8.09%.

In the case of `N#Cc1ccc(C(=O)NCC2(N3CCCCC3)CCCCC2)cc1`, the activity change, negative = inhibition was inactive: 16.4%.

Turning to `CCOC(=O)C(CC)C1=NC(C)(C)Cc2ccccc21.O=[N+]([O-])c1cc([N+](=O)[O-])c(O)c([N+](=O)[O-])c1` (stereo unspecified), the activity change, negative = inhibition was inactive: 0.385%.

As for `N/C(=N\O)c1c(N)no[n+]1[O-]`, the activity change, negative = inhibition was inactive: -1.8%.

Turning to `CCOC(=O)N1CCC(Nc2ccc(C)cc2)CC1`, the activity change, negative = inhibition was inactive: -6.14%.

Consider `O=C(OC1CN2CCC1CC2)C1c2ccccc2C=Cc2ccccc21` (stereo unspecified), for which the activity change, negative = inhibition was inactive: 9.17%.

Regarding `CCc1cc(C(=O)NCC2(N3CCCCC3)CCCCC2)sc1C`, the activity change, negative = inhibition is inactive: 19.1%.

As to `O=C(O)c1cccc(Nc2c([N+](=O)[O-])cc([N+](=O)[O-])cc2[N+](=O)[O-])c1`, the activity change, negative = inhibition is inactive: 3.45%.

In the case of `O=C(NCC1(N2CCOCC2)CCCCC1)c1cc(Br)ccc1Cl`, the activity change, negative = inhibition was inactive: -9.25%.

With `COc1cc(C(=O)NCC2(N3CCOCC3)CCCCC2)cc(OC)c1C`, the activity change, negative = inhibition was inactive: -0.248%.

Turning to `COc1ccc(C(=O)NCC2(N3CCOCC3)CCCCC2)cc1OC`, the activity change, negative = inhibition was inactive: -4.64%.

Turning to `CCC(CO)(C(=O)OC1CN2CCC1CC2)c1ccccc1` (stereo unspecified), the activity change, negative = inhibition was inactive: 6.54%.

As for `COc1cc(OC)cc(C(=O)NCC2(N3CCOCC3)CCCCC2)c1`, the activity change, negative = inhibition was inactive: -1.18%.

Regarding `COc1cccc(C(=O)N(c2cc(C)cc(C)c2)C2CCN(C(=O)OC(C)(C)C)CC2)c1`, the activity change, negative = inhibition was inactive: -24.1%.

On to `CCCOc1ccc(C)cc1CN(CCCl)CCCl`, for which the activity change, negative = inhibition is inactive: 15.3%.

`CN1CCC(Nc2ccc(Cl)cc2)CC1`: the activity change, negative = inhibition was inactive: 14.2%.

Turning to `CCOc1ncccc1C(=O)NCC1(N2CCOCC2)CCCCC1`, the activity change, negative = inhibition was inactive: -2.63%.

Take `CN1CCC(Nc2ccc(F)c(Cl)c2)CC1`: the activity change, negative = inhibition was inactive: -11.7%.

Turning to `CCCOc1ccc(C(=O)NCC2(N(C)C)CCCCC2)cc1`, the activity change, negative = inhibition is inactive: 50.9%.

For `CC(C)(C)OC(=O)N1CCC(Nc2ccccc2)CC1`, the activity change, negative = inhibition is inactive: -0.715%.

As for `O=C(O)C1(Nc2ccccc2)CCN(Cc2ccccc2)CC1`, the activity change, negative = inhibition was inactive: 1.67%.

Turning to `CCN1CCC(Nc2cccc(F)c2)CC1`, the activity change, negative = inhibition was inactive: 0.462%.

For `O=C(NCC1(N2CCCCC2)CCCCC1)c1ccco1`, the activity change, negative = inhibition was inactive: -0.561%.

Turning to `CN(C)c1ccc(C(=O)NCC2(N3CCCCC3)CCCCC2)cc1`, the activity change, negative = inhibition is inactive: 3.08%.

For the compound `COc1cc(OC)cc(C(=O)NCC2(N3CCCCC3)CCCCC2)c1`, the activity change, negative = inhibition is inactive: 60.8%.

Regarding `Cc1ccc(C(=O)NCC2(N3CCCCC3)CCCCC2)o1`, the activity change, negative = inhibition was inactive: 18.1%.

On to `Fc1ccccc1NC1CCN(Cc2ccccc2)CC1`, for which the activity change, negative = inhibition was inactive: 0.587%.
